Results taken from patent publication US7579439B2, “Modulation of IL-2- and IL-15-mediated T cell responses” (Beth Israel Deaconess Medical Center, Inc., priority 2000, dated 2009).

What was measured:
[1] = system: PHA-activated human PBMCs; experiment: [3H]-TdR incorporation assay, PHA-activated PBMCs; assay type: cell-based
Method: In the next series of experiments, the FLAG-HMK-IL-15 fusion protein was tested to determine whether it could function as a biologically active growth factor. […] Thus, FLAG-HMK-IL-15 is a biologically active growth factor that requires expression of IL-2Rβ chains upon target cells in order to stimulate cellular proliferation.

[2] = system: IL-2Rγ+ BAF-BO3 cell transfectants that express the IL-2Rβ subunit; experiment: BAF-BO3 cell proliferation assay (IL-2Rβ transfectants); assay type: cell-based; conditions: BAF-BO3 transfectants expressing IL-2Rβ
From the text: A mutant IL-15 polypeptide that can be used according to the present invention will generally block at least 40%, more preferably at least 70%, and most preferably at least 90% of one or more of the activities of the wild-type IL-15 molecule. The ability of a mutant IL-15 polypeptide to block wild-type IL-15 activity can be assessed by numerous assays, including the BAF-BO3 cell proliferation assay described herein (in which the cells were transfected with a construct encoding IL-2Rβ). […] When examining the percent identity between two polypeptides, the length of the sequences compared will generally be at least 16 amino acids, preferably at least 20 amino acids, more preferably at least 25 amino acids, and most preferably at least 35 amino acids. The term “identity,” as used in reference to polypeptide or DNA sequences, refers to the identity between subunits (amino acid residues of proteins or nucleotides of DNA molecules) within the two polypeptide or DNA sequences being compared. […] Identity is typically and most conveniently measured using sequence analysis software, such as the Sequence Analysis Software Package of the Genetics Computer Group at the University of Wisconsin Biotechnology Center (1710 University Avenue, Madison, Wis. 53705), with the default parameters thereof. […]

[3] = system: T cells at the second cell division in vivo; experiment: In vitro proliferation of sorted in vivo dividing T cells (3H-TdR uptake); assay type: cell-based, mice; conditions: IL-2 in doses as high as; IL-15 5 ng/ml; 48 hours
Method: FIG. 4B is a bar graph depicting the different response of in vivo dividing T cells to IL-2 and IL-15 in vitro. CFSE-labeled lymphocytes were stimulated in vivo for three days and cell division was analyzed by examining the CFSE profile. T cells in the second cell division were sorted and cells (1×10^4) were cultured in vitro with IL-2 or IL-15 for two days. Cellular proliferation was determined by ^3H-TdR uptake. The results are presented as the mean CPM±SD of triplicate assays.
Cell sorting and in vitro proliferation assays were carried out as follows. CFSE-labeled cells were prepared from irradiated allogeneic hosts three days after intravenous injection of labeled cells, and cell proliferation in vivo was identified by analysis of the cells' CFSE profile. The second cell division was selected, gated, and sorted with FACS Vantage™. Cells (1×10^4/ml) were resuspended in RPMI 1640 medium with 10% FCS and 1% penicillin and streptomycin, and stimulated with IL-2 (40 μ/ml to 500 μ/ml) or IL-15 (5 ng/ml) for 48 hours. Cells were pulsed with 1 mCi 3H-TdR (Amersham, Boston, Mass.) for 16 hours and ^3H-TdR uptake was determined by scintillation counting (Beckman Instrument, Columbia, Md.).

IL-2: recombinant human IL-2 was tested, and the “stimulation of cell proliferation” value [1] was “proliferate in response to”, the stimulation of proliferation [2] was “stimulates proliferation” and the “T cell proliferation by 3H-TdR uptake” value [3] was “failed to support T cell proliferation”.
